The values below are quoted from earlier work in US11578100B2, “Cyclic peptides, cyclic peptide conjugates and methods of use thereof” (Florida Atlantic University Board of Trustees, priority 2018, dated 2023).

By UniProt entry, the sequences of proteins in these tests, tags left out.
UniProt P35372, whole entry: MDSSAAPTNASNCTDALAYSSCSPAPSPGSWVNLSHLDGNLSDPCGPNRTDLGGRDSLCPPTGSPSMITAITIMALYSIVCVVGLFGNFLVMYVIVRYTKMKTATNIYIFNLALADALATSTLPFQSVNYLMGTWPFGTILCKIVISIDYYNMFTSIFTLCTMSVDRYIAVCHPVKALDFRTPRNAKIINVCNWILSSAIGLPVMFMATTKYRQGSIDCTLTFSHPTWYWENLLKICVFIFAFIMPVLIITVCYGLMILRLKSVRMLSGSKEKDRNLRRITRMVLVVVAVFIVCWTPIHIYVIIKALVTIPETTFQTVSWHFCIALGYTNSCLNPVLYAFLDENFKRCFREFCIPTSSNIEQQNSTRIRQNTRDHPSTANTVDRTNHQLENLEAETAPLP

The term Kd denotes the constant that tells how readily two partners part at equilibrium.

Structures are written as SMILES.

This series has as its target T1, μ opioid receptor (MOR) (Homo sapiens, UniProt P35372).
T1 construct: expressed in transfected cells; host or cells: CHO cells
Conditions: Janecka et al. 2003; read-out: Kd opioid receptor μ, literature data (parenthesis) (converted); cited from earlier work.

Regarding `CC(C)C[C@@H](NC(=O)[C@H](Cc1ccccc1)NC(=O)CNC(=O)[C@@H](C)NC(=O)[C@@H](N)Cc1ccc(O)cc1)C(=O)O` [DADLE, [D-Ala^2, D-Leu^5] enkephalin, reference compound], the Kd was 11.4 nM.
